Laboratory results as given in ChEMBL document CHEMBL6120956, “Discovery of a Potent, Orally Active, and Long-Lasting P2X7 Receptor Antagonist as a Preclinical Candidate for Delaying the Progression of Chronic Kidney Disease” (J Med Chem, 2024).

Legend:
[1] = biological target: T1, P2X purinoceptor 7 (Mus musculus) (UniProt Q9Z1M0); experiment: Antagonist activity against mouse P2X7 receptor expressed in ATP-stimulated HEK293 cells assessed as influx of PI at 1 uM by fluorescence dye uptake assay relative to control; assay type: cell-based; parameters: scale not given: the % may be the effect or the level left
T1 sequence (whole entry): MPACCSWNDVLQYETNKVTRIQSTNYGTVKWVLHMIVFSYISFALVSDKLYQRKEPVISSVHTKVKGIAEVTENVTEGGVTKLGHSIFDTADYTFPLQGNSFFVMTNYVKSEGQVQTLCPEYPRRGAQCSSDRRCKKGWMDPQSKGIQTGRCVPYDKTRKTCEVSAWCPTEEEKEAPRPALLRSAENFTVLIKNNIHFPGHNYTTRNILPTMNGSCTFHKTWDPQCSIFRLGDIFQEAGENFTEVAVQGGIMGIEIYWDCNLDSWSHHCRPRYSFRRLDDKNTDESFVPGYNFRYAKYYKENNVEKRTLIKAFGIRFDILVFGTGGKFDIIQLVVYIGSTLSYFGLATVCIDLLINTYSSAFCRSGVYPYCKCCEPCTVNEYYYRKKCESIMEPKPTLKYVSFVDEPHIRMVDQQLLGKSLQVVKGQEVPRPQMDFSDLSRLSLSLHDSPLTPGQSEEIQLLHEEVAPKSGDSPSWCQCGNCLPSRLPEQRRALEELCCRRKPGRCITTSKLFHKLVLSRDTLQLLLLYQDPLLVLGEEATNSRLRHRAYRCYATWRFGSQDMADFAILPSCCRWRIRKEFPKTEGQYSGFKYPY

[2] = biological target: T1, P2X purinoceptor 7 (Mus musculus); experiment: Antagonist activity against mouse P2X7 receptor expressed in ATP-stimulated HEK293 cells assessed as influx of PI at 200 nM by fluorescence dye uptake assay relative to control; assay type: cell-based; parameters: scale not given: the % may be the effect or the level left

Activity [1] [%]	Activity [2] [%]	Structure (SMILES)
95.9	65.2	CS(=O)(=O)c1ccc(-c2nc(C(=O)NCc3cn(-c4cc(N5CCC(F)(F)CC5)ccn4)nn3)cs2)cc1
75.6	50.3	CS(=O)(=O)c1ccc(-c2nc(C(=O)NCc3cn(-c4cc(C(F)(F)F)ccn4)nn3)cs2)cc1
82	59.5	CS(=O)(=O)c1ccc(-c2ncc(C(=O)NCc3cn(-c4cc(C(F)(F)F)ccn4)nn3)s2)cc1
73.7	40.3	CS(=O)(=O)c1ccc(-c2nc(C(=O)NCc3cn(-c4cc(NC5CC(F)(F)C5)ccn4)nn3)cs2)cc1
84.8	73	CS(=O)(=O)c1ccc(-c2ncc(C(=O)NCc3cn(-c4cc(N5CCC(F)(F)CC5)ccn4)nn3)s2)cc1
64	49.9	CS(=O)(=O)c1ccc(-c2nc(C(=O)NCc3cn(-c4cc(-c5cccc(C(F)(F)F)c5)ccn4)nn3)cs2)cc1
75.3	48	CS(=O)(=O)c1ccc(-c2ncc(C(=O)NCc3cn(-c4cc(NC5CC(F)(F)C5)ccn4)nn3)s2)cc1
